Data as given in patent publication US20220218639A1, “TUNEABLE DELIVERY OF NANOPARTICLE BOUND ACTIVE PLASMIN FOR THE TREATMENT OF THROMBOSIS” (Indiana University Research and Technology Corporation, priority 2014, published 2022).

Target: δ-plasmin (Homo sapiens, UniProt P00747, DEL181-559)
Assay: S-2251 inhibition assay (Dixon plot), δ-plasmin
Type: biochemical
Conditions: read-out: Ki (δ-plasmin), S-2251 100, 350, 750 μM, enzyme 1.0 μg/mL, PBS pH 7.4, unit inferred

N=C(N)c1ccc(OCCCCCOc2ccc(C(=N)N)cc2)cc1 [Pentamidine]
Ki: 4 µM
